The numbers were not newly measured in US20060252714A1, “Pharmaceutical compositions and methods for treating multidrug resistant cancer” (priority 2003, published 2006), which cites them from elsewhere.

The conditions of the data set: IV unless otherwise indicated; cited from earlier work.

Consider “Interleukin-2: chemotherapy drug listed in Table I”, for which the “Toxic dose range” value is “Conventional dose”.
